Drawing on paper PMC4835159 (Journal of Medicinal Chemistry, 2016), this text covers Kd for one compound.

The test concerns the target T1, CYP144TR (Mycobacterium tuberculosis, UniProt P9WPL1).
T1 sequence (P9WPL1 31-434 limits assumed): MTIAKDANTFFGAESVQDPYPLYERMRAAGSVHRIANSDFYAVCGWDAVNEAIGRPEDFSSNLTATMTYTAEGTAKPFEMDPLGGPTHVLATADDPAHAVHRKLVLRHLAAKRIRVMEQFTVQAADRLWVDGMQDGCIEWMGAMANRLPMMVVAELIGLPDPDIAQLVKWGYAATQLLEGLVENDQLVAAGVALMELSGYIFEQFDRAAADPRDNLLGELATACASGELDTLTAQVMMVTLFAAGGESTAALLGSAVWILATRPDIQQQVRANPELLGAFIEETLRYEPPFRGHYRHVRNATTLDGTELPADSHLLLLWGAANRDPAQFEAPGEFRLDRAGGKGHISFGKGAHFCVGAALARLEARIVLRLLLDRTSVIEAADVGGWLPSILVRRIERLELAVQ

The compound `Nc1cccc(-c2cc(-c3c(-c4ccc(O)cc4)n[nH]c3N)ccc2O)c1` [25b, 3′-Amino-5-(5-amino-3-(4-hydroxyphenyl)-1H-pyrazol-4-yl)-[1,1′-biphenyl]-2-ol] showed a Kd of 248 µM.
